Reference: PubChem BioAssay (NCI)
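Growth conditions: 96-well plates. Treatment: test compound, 48 hours, 5 concentrations. Analysis: linear interpolation between bracketing concentrations; unreached endpoints set to highest concentration. GI50 is the concentration that inhibits growth by half. TGI marks complete inhibition of growth.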

How the values were obtained:
Test in all cases: DTP human tumour cell line panel, 48 h
[1] = test system: M14 melanoma
[2] = test system: MDA-MB-231 breast
[3] = test system: CAKI-1 renal
[4] = test system: ACHN renal
[5] = test system: MALME-3M melanoma
[6] = test system: DU-145 prostate
[7] = test system: NCI-H226 lung
[8] = test system: U251 CNS
[9] = test system: SN12C renal
[10] = test system: 786-0 renal
[11] = test system: KM12 colon
[12] = test system: COLO 205 colon
[13] = test system: CCRF-CEM leukemia
[14] = test system: HOP-92 NSCLC
[15] = test system: IGROV1 ovarian
[16] = test system: OVCAR-3 ovarian
[17] = test system: K-562 leukemia
[18] = test system: PC-3 prostate
[19] = test system: MCF7 breast
[20] = test system: EKVX NSCLC
[21] = test system: T-47D breast
[22] = test system: SF-539 CNS
[23] = test system: LOX IMVI melanoma
[24] = test system: SK-MEL-5 melanoma
[25] = test system: SR leukemia
[26] = test system: TK-10 renal
[27] = test system: UACC-62 melanoma
[28] = test system: SF-268 CNS
[29] = test system: HT29 colon
[30] = test system: NCI-H322M lung
[31] = test system: NCI/ADR-RES ovarian
[32] = test system: UACC-257 melanoma
[33] = test system: SK-OV-3 ovarian
[34] = test system: NCI-H522 lung
[35] = test system: NCI-H460 lung
[36] = test system: OVCAR-8 ovarian
[37] = test system: RPMI-8226 leukemia
[38] = test system: SK-MEL-2 melanoma
[39] = test system: RXF 393 renal
[40] = test system: A549 NSCLC
[41] = test system: HCT-15 colon
[42] = test system: SF-295 CNS
[43] = test system: BT-549 breast
[44] = test system: SK-MEL-28 melanoma
[45] = test system: HL-60(TB) leukemia
[46] = test system: HCT-116 colon
[47] = test system: HS 578T breast
[48] = test system: HOP-62 NSCLC
[49] = test system: SNB-19 CNS
[50] = test system: MDA-N
[51] = test system: SNB-75 CNS
[52] = test system: SW-620 colon
[53] = test system: MOLT-4 leukemia
[54] = test system: OVCAR-5 ovarian
[55] = test system: NCI-H23 lung
[56] = test system: OVCAR-4 ovarian
[57] = test system: MDA-MB-435
[58] = test system: A498 renal
[59] = test system: UO-31 renal
[60] = test system: HCC-2998 colon

[N-]=[N+]=NCC(N)=O
GI50 [1]: > 100 µM | TGI [1]: > 100 µM | GI50 [2]: > 100 µM | TGI [2]: > 100 µM | GI50 [3]: > 100 µM | TGI [3]: > 100 µM | GI50 [4]: > 100 µM | TGI [4]: > 100 µM | GI50 [5]: > 100 µM | TGI [5]: > 100 µM | GI50 [6]: > 100 µM | TGI [6]: > 100 µM | GI50 [7]: > 100 µM | TGI [7]: > 100 µM | GI50 [8]: > 100 µM | TGI [8]: > 100 µM | GI50 [9]: > 100 µM | TGI [9]: > 100 µM | GI50 [10]: > 100 µM | TGI [10]: > 100 µM | GI50 [11]: > 100 µM | TGI [11]: > 100 µM | GI50 [12]: > 100 µM | TGI [12]: > 100 µM | GI50 [13]: > 100 µM | TGI [13]: > 100 µM | GI50 [14]: > 100 µM | TGI [14]: > 100 µM | GI50 [15]: > 100 µM | TGI [15]: > 100 µM | GI50 [16]: > 100 µM | TGI [16]: > 100 µM | GI50 [17]: > 100 µM | TGI [17]: > 100 µM | GI50 [18]: > 100 µM | TGI [18]: > 100 µM | GI50 [19]: > 100 µM | TGI [19]: > 100 µM | GI50 [20]: > 100 µM | TGI [20]: > 100 µM | GI50 [21]: > 100 µM | TGI [21]: > 100 µM | GI50 [22]: > 100 µM | TGI [22]: > 100 µM | GI50 [23]: > 100 µM | TGI [23]: > 100 µM | GI50 [24]: > 100 µM | TGI [24]: > 100 µM | GI50 [25]: > 100 µM | TGI [25]: > 100 µM | GI50 [26]: > 100 µM | TGI [26]: > 100 µM | GI50 [27]: > 100 µM | TGI [27]: > 100 µM | GI50 [28]: > 100 µM | TGI [28]: > 100 µM | GI50 [29]: > 100 µM | TGI [29]: > 100 µM | GI50 [30]: > 100 µM | TGI [30]: > 100 µM | GI50 [31]: > 100 µM | TGI [31]: > 100 µM | GI50 [32]: > 100 µM | TGI [32]: > 100 µM | GI50 [33]: > 100 µM | TGI [33]: > 100 µM | GI50 [34]: > 100 µM | TGI [34]: > 100 µM | GI50 [35]: > 100 µM | TGI [35]: > 100 µM | GI50 [36]: > 100 µM | TGI [36]: > 100 µM | GI50 [37]: > 100 µM | TGI [37]: > 100 µM | GI50 [38]: > 100 µM | TGI [38]: > 100 µM | GI50 [39]: > 100 µM | TGI [39]: > 100 µM | GI50 [40]: > 100 µM | TGI [40]: > 100 µM | GI50 [41]: > 100 µM | TGI [41]: > 100 µM | GI50 [42]: > 100 µM | TGI [42]: > 100 µM | GI50 [43]: > 100 µM | TGI [43]: > 100 µM | GI50 [44]: > 100 µM | TGI [44]: > 100 µM | GI50 [45]: > 100 µM | TGI [45]: > 100 µM | GI50 [46]: > 100 µM | TGI [46]: > 100 µM | GI50 [47]: > 100 µM | TGI [47]: > 100 µM | GI50 [48]: > 100 µM | TGI [48]: > 100 µM | GI50 [49]: > 100 µM | TGI [49]: > 100 µM | GI50 [50]: > 100 µM | TGI [50]: > 100 µM | GI50 [51]: > 100 µM | TGI [51]: > 100 µM | GI50 [52]: > 100 µM | TGI [52]: > 100 µM | GI50 [53]: > 100 µM | TGI [53]: > 100 µM | GI50 [54]: > 100 µM | TGI [54]: > 100 µM | GI50 [55]: > 100 µM | TGI [55]: > 100 µM | GI50 [56]: > 100 µM | TGI [56]: > 100 µM | GI50 [57]: > 100 µM | TGI [57]: > 100 µM | GI50 [58]: > 100 µM | TGI [58]: > 100 µM | GI50 [59]: > 100 µM | TGI [59]: > 100 µM

Fc1cccc(NC2=NCC(CI)S2)c1 (stereo not drawn)
GI50 [1]: > 100 µM | TGI [1]: > 100 µM | GI50 [2]: > 100 µM | TGI [2]: > 100 µM | GI50 [3]: > 100 µM | TGI [3]: > 100 µM | GI50 [4]: > 100 µM | TGI [4]: > 100 µM | GI50 [5]: > 100 µM | TGI [5]: > 100 µM | GI50 [6]: > 100 µM | TGI [6]: > 100 µM | GI50 [7]: 74.3 µM | TGI [7]: > 100 µM | GI50 [8]: 90.9 µM | TGI [8]: > 100 µM | GI50 [9]: > 100 µM | TGI [9]: > 100 µM | GI50 [10]: > 100 µM | TGI [10]: > 100 µM | GI50 [11]: 39 µM | TGI [11]: > 100 µM | GI50 [12]: > 100 µM | TGI [12]: > 100 µM | GI50 [13]: 12.2 µM | TGI [13]: 41.3 µM | GI50 [14]: > 100 µM | TGI [14]: > 100 µM | GI50 [15]: > 100 µM | TGI [15]: > 100 µM | GI50 [16]: > 100 µM | TGI [16]: > 100 µM | GI50 [17]: 34.4 µM | TGI [17]: > 100 µM | GI50 [18]: 59.8 µM | TGI [18]: > 100 µM | GI50 [19]: 75.9 µM | TGI [19]: > 100 µM | GI50 [20]: > 100 µM | TGI [20]: > 100 µM | GI50 [21]: 48.9 µM | TGI [21]: 92 µM | GI50 [22]: > 100 µM | TGI [22]: > 100 µM | GI50 [23]: 56.1 µM | TGI [23]: > 100 µM | GI50 [24]: > 100 µM | TGI [24]: > 100 µM | GI50 [25]: 17.8 µM | TGI [25]: 73.6 µM | GI50 [26]: > 100 µM | TGI [26]: > 100 µM | GI50 [27]: > 100 µM | TGI [27]: > 100 µM | GI50 [28]: > 100 µM | TGI [28]: > 100 µM | GI50 [29]: 89.4 µM | TGI [29]: > 100 µM | GI50 [30]: > 100 µM | TGI [30]: > 100 µM | GI50 [60]: > 100 µM | TGI [60]: > 100 µM | GI50 [31]: 54.6 µM | TGI [31]: > 100 µM | GI50 [32]: > 100 µM | TGI [32]: > 100 µM | GI50 [33]: > 100 µM | TGI [33]: > 100 µM | GI50 [34]: 26 µM | TGI [34]: > 100 µM | GI50 [35]: 87.6 µM | TGI [35]: > 100 µM | GI50 [36]: > 100 µM | TGI [36]: > 100 µM | GI50 [37]: > 100 µM | TGI [37]: > 100 µM | GI50 [38]: > 100 µM | TGI [38]: > 100 µM | GI50 [39]: 84.5 µM | TGI [39]: > 100 µM | GI50 [40]: > 100 µM | TGI [40]: > 100 µM | GI50 [41]: 78.6 µM | TGI [41]: > 100 µM | GI50 [42]: > 100 µM | TGI [42]: > 100 µM | GI50 [43]: > 100 µM | TGI [43]: > 100 µM | GI50 [44]: > 100 µM | TGI [44]: > 100 µM | GI50 [45]: 13.2 µM | TGI [45]: 38.2 µM | GI50 [46]: 87.9 µM | TGI [46]: > 100 µM | GI50 [47]: 22.2 µM | TGI [47]: > 100 µM | GI50 [48]: > 100 µM | TGI [48]: > 100 µM | GI50 [49]: > 100 µM | TGI [49]: > 100 µM | GI50 [50]: > 100 µM | TGI [50]: > 100 µM | GI50 [51]: 27.1 µM | TGI [51]: > 100 µM | GI50 [52]: 68.2 µM | TGI [52]: > 100 µM | GI50 [53]: 16.2 µM | TGI [53]: 67.1 µM | GI50 [54]: > 100 µM | TGI [54]: > 100 µM | GI50 [55]: 88.8 µM | TGI [55]: > 100 µM | GI50 [56]: 42.6 µM | TGI [56]: 90.3 µM | GI50 [57]: > 100 µM | TGI [57]: > 100 µM | GI50 [58]: 84.3 µM | TGI [58]: > 100 µM | GI50 [59]: 70.4 µM | TGI [59]: > 100 µM
